Source: PMC2806825, “The Expression Level of CB1 and CB2 Receptors Determines Their Efficacy at Inducing Apoptosis in Astrocytomas” (PLoS ONE, 2010)

Chains of the proteins cited; added tags and fusions are not shown.
UniProt P47746, whole entry: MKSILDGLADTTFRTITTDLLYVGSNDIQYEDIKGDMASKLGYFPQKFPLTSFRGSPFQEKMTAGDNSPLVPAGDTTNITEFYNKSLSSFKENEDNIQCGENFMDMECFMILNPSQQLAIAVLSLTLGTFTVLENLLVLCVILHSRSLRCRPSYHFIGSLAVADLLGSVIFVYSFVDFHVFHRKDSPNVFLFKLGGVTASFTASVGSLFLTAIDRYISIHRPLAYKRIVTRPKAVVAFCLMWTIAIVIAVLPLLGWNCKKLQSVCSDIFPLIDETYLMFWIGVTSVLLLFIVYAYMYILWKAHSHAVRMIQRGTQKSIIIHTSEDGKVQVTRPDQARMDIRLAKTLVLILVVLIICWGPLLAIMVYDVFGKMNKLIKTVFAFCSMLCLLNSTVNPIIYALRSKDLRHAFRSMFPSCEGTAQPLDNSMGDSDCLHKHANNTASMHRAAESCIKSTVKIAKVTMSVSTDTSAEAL

Assays:
[1] = target: T1, CB1 receptors (Mus musculus, UniProt P47746); test: AKT phosphorylation by Luminex multiplex immunoassay in CB1-expressing DBT subclones; assay type: cell-based; details: antagonist 5 µM added 10 min before CP
T1 construct: expressed in transfected cells

[2] = target: T1, CB1 receptors; test: ERK1/2 phosphorylation by Western blot in CB1-expressing DBT subclones; assay type: cell-based; details: antagonist 5 µM added 10 min before CP

Cc1c(C(=O)NN2CCCCC2)nn(-c2ccc(Cl)cc2Cl)c1-c1ccc(Cl)cc1 [SR141716A, 5-(4-chlorophenyl)-1-(2,4-dichlorophenyl)-4-methyl-N-(1-piperidyl)-1H-pyrazole-3-carboxamide]
Effect on CP-55,940 (1 µM)-induced AKT phosphorylation [1]: antagonized | Effect on CP-55,940 (1 µM)-induced ERK1/2 phosphorylation [2]: significantly attenuated
